# Test results published in ChEMBL document CHEMBL5046295 (J Med Chem, 2022).
# By UniProt entry, the sequences of proteins in these tests, tags left out. Where a name states a change or a piece, a line headed by the entry shows the natural chain unless it says otherwise.
# UniProt P33534: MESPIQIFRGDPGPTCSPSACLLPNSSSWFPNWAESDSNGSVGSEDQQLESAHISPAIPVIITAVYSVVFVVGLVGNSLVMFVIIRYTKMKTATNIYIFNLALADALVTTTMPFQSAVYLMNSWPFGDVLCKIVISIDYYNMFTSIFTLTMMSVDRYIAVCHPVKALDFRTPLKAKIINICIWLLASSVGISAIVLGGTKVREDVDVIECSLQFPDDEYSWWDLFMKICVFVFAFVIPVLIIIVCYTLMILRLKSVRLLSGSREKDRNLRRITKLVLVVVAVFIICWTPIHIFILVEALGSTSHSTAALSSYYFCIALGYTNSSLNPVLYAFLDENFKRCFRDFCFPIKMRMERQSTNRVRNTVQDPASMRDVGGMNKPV
# UniProt P41143, whole entry: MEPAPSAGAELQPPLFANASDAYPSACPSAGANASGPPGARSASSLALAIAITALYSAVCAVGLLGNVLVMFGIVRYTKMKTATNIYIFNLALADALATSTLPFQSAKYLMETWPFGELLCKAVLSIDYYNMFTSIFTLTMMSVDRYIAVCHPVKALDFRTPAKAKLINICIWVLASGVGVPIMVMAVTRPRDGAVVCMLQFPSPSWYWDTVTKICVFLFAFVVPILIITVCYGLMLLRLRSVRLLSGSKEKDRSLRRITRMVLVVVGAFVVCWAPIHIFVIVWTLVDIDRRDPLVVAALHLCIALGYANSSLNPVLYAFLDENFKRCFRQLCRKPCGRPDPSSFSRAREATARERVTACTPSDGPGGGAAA
# Legend:
# [1] = molecular target: Kappa-type opioid receptor (Mus musculus, UniProt P33534); assay: biochemical
# [2] = molecular target: Delta-type opioid receptor (Homo sapiens, UniProt P41143); assay: biochemical
smiles,measurement,setting,value
O=C(N[C@H]1CC[C@@]2(O)[C@H]3Cc4ccc(O)c5c4[C@@]2(CCN3CC2CC2)[C@H]1O5)c1ccc[nH]1,EC50,[1],14.8 nM
same,EC50,[2],26.9 nM
